Tests used:
Test in all cases: cell-based or functional assay
[1] = molecular target: T1, ETBR V325A (human, UniProt P24530 27-442, V325A)
T1 sequence (looked up): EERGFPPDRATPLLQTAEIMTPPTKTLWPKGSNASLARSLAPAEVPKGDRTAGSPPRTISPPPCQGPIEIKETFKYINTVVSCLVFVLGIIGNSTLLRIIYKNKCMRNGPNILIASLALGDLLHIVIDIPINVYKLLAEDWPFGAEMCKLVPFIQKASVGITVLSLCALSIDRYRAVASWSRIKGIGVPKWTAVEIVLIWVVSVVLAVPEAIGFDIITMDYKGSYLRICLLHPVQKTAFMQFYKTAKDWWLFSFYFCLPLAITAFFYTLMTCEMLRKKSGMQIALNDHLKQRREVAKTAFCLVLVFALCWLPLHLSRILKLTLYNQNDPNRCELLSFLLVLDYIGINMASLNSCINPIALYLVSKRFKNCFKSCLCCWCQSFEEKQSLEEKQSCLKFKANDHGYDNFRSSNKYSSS

[2] = molecular target: T2, ETBR M296A (human, UniProt P24530 27-442, M296A)
T2 sequence (looked up): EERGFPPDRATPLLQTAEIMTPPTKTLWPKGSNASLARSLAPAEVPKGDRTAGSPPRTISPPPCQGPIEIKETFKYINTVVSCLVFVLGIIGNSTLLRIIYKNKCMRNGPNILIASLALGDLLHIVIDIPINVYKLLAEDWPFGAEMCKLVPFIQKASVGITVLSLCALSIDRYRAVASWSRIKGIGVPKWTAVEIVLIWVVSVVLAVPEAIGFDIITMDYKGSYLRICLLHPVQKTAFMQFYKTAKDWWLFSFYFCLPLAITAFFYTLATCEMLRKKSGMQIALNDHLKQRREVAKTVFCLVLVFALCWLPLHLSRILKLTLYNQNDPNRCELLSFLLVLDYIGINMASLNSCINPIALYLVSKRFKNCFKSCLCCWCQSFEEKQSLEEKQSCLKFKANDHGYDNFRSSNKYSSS

[3] = molecular target: T3, ETBR M300A (human, UniProt P24530 27-442, M300A)
T3 sequence (looked up): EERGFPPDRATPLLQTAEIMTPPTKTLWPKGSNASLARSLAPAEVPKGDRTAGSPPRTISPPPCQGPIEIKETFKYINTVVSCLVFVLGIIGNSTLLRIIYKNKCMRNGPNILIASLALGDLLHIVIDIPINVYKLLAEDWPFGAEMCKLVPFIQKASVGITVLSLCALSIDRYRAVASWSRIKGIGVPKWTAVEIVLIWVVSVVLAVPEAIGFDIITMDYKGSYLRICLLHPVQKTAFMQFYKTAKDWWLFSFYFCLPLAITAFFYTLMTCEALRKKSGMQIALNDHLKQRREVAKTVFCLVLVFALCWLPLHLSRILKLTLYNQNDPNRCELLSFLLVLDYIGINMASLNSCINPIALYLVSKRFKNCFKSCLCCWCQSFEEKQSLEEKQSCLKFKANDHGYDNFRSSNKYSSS

[4] = molecular target: T4, ETBR S390A (human, UniProt P24530 27-442, S390A)
T4 sequence (looked up): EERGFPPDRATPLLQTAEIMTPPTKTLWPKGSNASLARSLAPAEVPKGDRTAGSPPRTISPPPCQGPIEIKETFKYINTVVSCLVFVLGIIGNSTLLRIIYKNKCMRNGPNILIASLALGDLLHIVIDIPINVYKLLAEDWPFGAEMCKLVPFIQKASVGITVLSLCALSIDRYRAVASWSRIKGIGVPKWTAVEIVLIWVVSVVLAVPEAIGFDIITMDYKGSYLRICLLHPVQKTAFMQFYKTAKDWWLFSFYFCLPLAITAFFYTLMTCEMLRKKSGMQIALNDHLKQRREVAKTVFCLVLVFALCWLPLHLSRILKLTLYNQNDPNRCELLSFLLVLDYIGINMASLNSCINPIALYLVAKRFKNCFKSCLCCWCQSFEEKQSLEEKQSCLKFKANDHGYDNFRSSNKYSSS

Measured: NanoBiT Gi-protein dissociation assay, ET-1-induced, HEK293A cells, mutant receptor against wild type, considering expression

B1: wild-type Gαi1 subunit (natural protein, human)
chain: MGCTLSAEDKAAVERSKMIDRNLREDGEKAAREVKLLLLGAGESGKSTIVKQMKIIHEAGYSEEECKQYKAVVYSNTIQSIIAIIRAMGRLKIDFGDSARADDARQLFVLAGAAEEGFMTAELAGVIKRLWKDSGVQACFNRSREYQLNDSAAYYLNDLDRIAQPNYIPTQQDVLRTRVKTTGIVETHFTFKDLHFKMFDVGGQRSERKKWIHCFEGVTAIIFCVALSDYDLVLAEDEEMNRMHESMKLFDSICNNKWFTDTSIILFLNKKDLFEEKIKKSPLTICYPEYAGSNTYEEAAAYIQCQFEDLNKRKDTKEIYTHFTCATDTKNVQFVFDAVTDVIIKNNLKDCGLF
~50 % reduction: [1] | [2] | [3] | [4]

Source: paper PMC11484851, “Structure of endothelin ETB receptor–Gi complex in a conformation stabilized by unique NPxxL motif” (Communications Biology, 2024)
